Patent US20070196275A1, “Diagnostic Imaging Compositions, Their Methods Of Synthesis And Use” (priority 2001, published 2007)

Tests used:
DiFi cells = test: MTT assay; format: cell-based, human; settings: 72 hour treatment
Protocol: DiFi cells were seeded at 5×10^4 cells/well onto 24-well culture plates. […] An optical absorbance of cell lysate was determined by measuring the cell lysate at a wavelength of 595 nm and normalizing the value with the corresponding control of untreated cells.

A431 tumors = format: in vivo, mice
[1] = set-up: species or system Nude mice; settings: mouse, in vivo

1:40 DTPA-PEG-C225: C225 with DTPA attached through PEG linker, antibody to GMBS 1:40, unlabeled
DiFi cell growth (cell viability) (DiFi cells): inhibited the tumor cell growth to the same extent as native C225

1:20 DTPA-PEG-C225: C225 with DTPA attached through PEG linker, antibody to GMBS 1:20, unlabeled
DiFi cell growth (cell viability) (DiFi cells): inhibited the tumor cell growth to the same extent as native C225

1:30 ^111In-DTPA-PEG-C225: ^111In-labeled DTPA-PEG-C225, molar ratio antibody to GMBS 1:30, about 60% of amino groups substituted
visualization of tumors in gamma scintigrams (A431 tumors; A431 tumors, 48 hours after injection): clearly seen 48 hours after injection
Liver (A431 tumors; mouse, in vivo): 25.5 ± 2.0 % IND/g
Muscle (A431 tumors; mouse, in vivo): 0.69 ± 0.22 % IND/g
Tumor (A431 tumors; mouse, in vivo): 8.68 ± 1.78 % IND/g
K10 (elimination rate constant from the central compartment) [1]: 0.09 h⁻¹
K12 [1]: 0.53 h⁻¹
K13 [1]: 0.02 h⁻¹
K21 [1]: 2.27 h⁻¹
K31 [1]: 0.04 h⁻¹
A ([1]; iv): 11.3 % ID/ml
B ([1]; iv): 37.3 % ID/ml
C ([1]; iv): 7.6 % ID/ml

1:10 DTPA-PEG-C225: C225 with DTPA attached through PEG linker, antibody to GMBS 1:10, unlabeled
DiFi cell growth (cell viability) (DiFi cells): inhibited the tumor cell growth to the same extent as native C225
